Experimental data as given in publication PMC4724290 (Synapse (New York, N.Y.), 2015).
Like-named read-outs stand apart in the source and are kept apart here.

By UniProt entry, the sequences of proteins in these tests, tags left out.
UniProt O55242, whole entry: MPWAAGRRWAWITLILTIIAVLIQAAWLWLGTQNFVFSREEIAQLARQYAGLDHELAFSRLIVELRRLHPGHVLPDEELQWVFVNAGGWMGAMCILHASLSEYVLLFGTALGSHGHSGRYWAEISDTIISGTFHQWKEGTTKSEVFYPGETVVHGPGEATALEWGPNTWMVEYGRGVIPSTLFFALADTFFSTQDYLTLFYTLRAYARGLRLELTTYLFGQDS
UniProt Q61327, whole entry: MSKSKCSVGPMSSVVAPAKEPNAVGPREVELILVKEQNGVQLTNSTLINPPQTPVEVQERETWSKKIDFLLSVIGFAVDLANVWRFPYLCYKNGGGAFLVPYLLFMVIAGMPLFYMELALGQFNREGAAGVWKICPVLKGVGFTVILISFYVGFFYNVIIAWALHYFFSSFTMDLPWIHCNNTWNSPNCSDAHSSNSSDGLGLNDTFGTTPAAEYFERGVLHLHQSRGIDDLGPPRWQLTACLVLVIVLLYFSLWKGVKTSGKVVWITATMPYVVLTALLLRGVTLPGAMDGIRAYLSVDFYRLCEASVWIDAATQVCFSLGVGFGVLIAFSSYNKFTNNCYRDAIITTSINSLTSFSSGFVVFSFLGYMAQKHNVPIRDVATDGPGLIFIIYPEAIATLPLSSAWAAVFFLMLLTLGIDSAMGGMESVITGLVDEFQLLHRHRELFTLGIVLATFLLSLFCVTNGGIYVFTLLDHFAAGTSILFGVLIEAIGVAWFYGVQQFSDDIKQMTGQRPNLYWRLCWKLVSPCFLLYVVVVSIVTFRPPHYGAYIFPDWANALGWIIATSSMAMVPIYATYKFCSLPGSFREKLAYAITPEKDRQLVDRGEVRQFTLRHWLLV

How the values were obtained:
σ1 receptors [1] = target: T1, σ1 receptors (Mus musculus, UniProt O55242); format: in vivo, CD-1 mice
[2] = target: striatal dopamine transporters (DAT) (Mus musculus, UniProt Q61327); test: In vivo DAT occupancy: inhibition of [^125I]RTI-121 specific binding in striatum; design: species or system CD-1 mice
σ1 receptors [3] = target: T1, σ1 receptors; format: in vivo, CD-1 mice; conditions: 60 min; for Specific Binding [^125I]E-IA-DM-PE-PIPZE, (−)-Cocaine: (−)-cocaine 100 μmol/kg i.p.
σ1 receptors [4] = target: T1, σ1 receptors; test: In vitro σ1 receptor binding, [^3H]; design: species or system CD-1 mouse
σ2 receptors = target: T2, σ2 receptors (Mus musculus, UniProt Q8VD00); test: In vitro σ2 receptor binding, [^3H]DTG/; design: species or system CD-1 mouse; conditions: 3.0 nM [^3H]DTG/500 nM (+)pentazocine, 25 °C, 60 min
T2 sequence (Q8VD00 1-176): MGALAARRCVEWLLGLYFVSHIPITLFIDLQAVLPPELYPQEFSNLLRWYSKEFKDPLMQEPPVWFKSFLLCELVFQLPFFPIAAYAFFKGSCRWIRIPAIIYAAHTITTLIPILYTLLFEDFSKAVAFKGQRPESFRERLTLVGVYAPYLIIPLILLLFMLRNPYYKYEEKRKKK

σ1 receptors [5] = target: T1, σ1 receptors; test: In vitro σ1 receptor binding, [^125I]E-IA-DM-PE-PIPZE, brain membranes; design: species or system CD-1 mouse; conditions: 1.0 nM [^125I]E-IA-DM-PE-PIPZE, 37 °C, 60 min
Brain level of = format: in vivo, CD-1 mice; conditions: indicated by 3.45 ng/mg brain level
DAT = conditions: ref Garcés-Ramírez et al., 2011; cited from earlier work
σ1 receptors [6] = target: T1, σ1 receptors; conditions: 100 μmol/kg i.p. 1 min prior to radioligand, 30 min
[7] = (−)-cocaine hydrochloride 20 mg/kg (59 μmol/kg)

(−)-Cocaine hydrochloride
Fractional occupancy of cerebral σ1 receptors by mass-action calculation (σ1 receptors [1]; 10 μM brain concentration, 1075 nM apparent affinity): ~90% | Reduction of specific binding in whole brain by anatomical dissection (σ1 receptors [1]; 100 μmol/kg i.p., 15 min prior, 60 min (Fig. 1A)): 57% | ED50 for σ1 receptor occupancy relative to the DAT (σ1 receptors [1]; 68 vs 26 μmol/kg): 2.6 fold | Occupancy of σ1 receptors (σ1 receptors [1]; [7]): 46% | Maximal level of inhibition of specific [^125I]RTI-121 binding ([2]; 10 to 100 μmol/kg i.p.): 67% | Occupancy of the DAT [2, 7]: 62% | ED50 for inhibition of specific [^125I]RTI-121 binding (striatal DAT occupancy) ([2]; drug i.p. 1 min prior to radioligand, 30 min, bottom plateau constrained to zero): 26 µmol/kg | Average reduction of specific radioligand binding across 20 brain regions (σ1 receptors [3]; 100 μmol/kg i.p. pretreatment): 53.8 ± 3.2% | Specific Binding [^125I]E-IA-DM-PE-PIPZE, (−)-Cocaine (σ1 receptors [3]; Caudate-putamen): 0.87 ± 0.09 fmol/mg tissue | Specific Binding [^125I]E-IA-DM-PE-PIPZE, (−)-Cocaine (σ1 receptors [3]; Cortex, Cingulate): 1.36 ± 0.14 fmol/mg tissue | Specific Binding [^125I]E-IA-DM-PE-PIPZE, (−)-Cocaine (σ1 receptors [3]; Cortex, Entorhinal): 1.10 ± 0.11 fmol/mg tissue | Specific Binding [^125I]E-IA-DM-PE-PIPZE, (−)-Cocaine (σ1 receptors [3]; Cortex, Frontal): 1.58 ± 0.14 fmol/mg tissue | Specific Binding [^125I]E-IA-DM-PE-PIPZE, (−)-Cocaine (σ1 receptors [3]; Cortex, Parietal): 1.41 ± 0.13 fmol/mg tissue | Specific Binding [^125I]E-IA-DM-PE-PIPZE, (−)-Cocaine (σ1 receptors [3]; Cortex, Temporal): 1.43 ± 0.14 fmol/mg tissue | Specific Binding [^125I]E-IA-DM-PE-PIPZE, (−)-Cocaine (σ1 receptors [3]; Diencephalon, Thalamic nuclei): 1.60 ± 0.25 fmol/mg tissue | Specific Binding [^125I]E-IA-DM-PE-PIPZE, (−)-Cocaine (σ1 receptors [3]; Diencephalon, Thalamus): 1.52 ± 0.18 fmol/mg tissue | Specific Binding [^125I]E-IA-DM-PE-PIPZE, (−)-Cocaine (σ1 receptors [3]; Hippocampus, CA1 pyramidal): 1.04 ± 0.09 fmol/mg tissue | Specific Binding [^125I]E-IA-DM-PE-PIPZE, (−)-Cocaine (σ1 receptors [3]; Hippocampus, CA2 pyramidal): 1.41 ± 0.11 fmol/mg tissue | Specific Binding [^125I]E-IA-DM-PE-PIPZE, (−)-Cocaine (σ1 receptors [3]; Hippocampus, CA3 pyramidal): 1.50 ± 0.12 fmol/mg tissue | Specific Binding [^125I]E-IA-DM-PE-PIPZE, (−)-Cocaine (σ1 receptors [3]; Hippocampus, Dentate Gyrus): 1.39 ± 0.09 fmol/mg tissue | Specific Binding [^125I]E-IA-DM-PE-PIPZE, (−)-Cocaine (σ1 receptors [3]; Hippocampus, Nonpyramidal): 0.63 ± 0.09 fmol/mg tissue | Specific Binding [^125I]E-IA-DM-PE-PIPZE, (−)-Cocaine (σ1 receptors [3]; Mesencephalon, Inferior Colliculi): 1.69 ± 0.16 fmol/mg tissue | Specific Binding [^125I]E-IA-DM-PE-PIPZE, (−)-Cocaine (σ1 receptors [3]; Mesencephalon, Periaqueductal Gray): 1.78 ± 0.16 fmol/mg tissue | Specific Binding [^125I]E-IA-DM-PE-PIPZE, (−)-Cocaine (σ1 receptors [3]; Mesencephalon, Superior Colliculi): 1.59 ± 0.11 fmol/mg tissue | Specific Binding [^125I]E-IA-DM-PE-PIPZE, (−)-Cocaine (σ1 receptors [3]; Metencephalon, Cerebellum (whole)): 1.32 ± 0.14 fmol/mg tissue | Specific Binding [^125I]E-IA-DM-PE-PIPZE, (−)-Cocaine (σ1 receptors [3]; Metencephalon, Granular layer): 1.90 ± 0.15 fmol/mg tissue | Specific Binding [^125I]E-IA-DM-PE-PIPZE, (−)-Cocaine (σ1 receptors [3]; Metencephalon, Molecular layer): 1.08 ± 0.08 fmol/mg tissue | Specific Binding [^125I]E-IA-DM-PE-PIPZE, (−)-Cocaine (σ1 receptors [3]; White Matter, Corpus callosum): 1.29 ± 0.17 fmol/mg tissue | Sigma1 nH (σ1 receptors [4]; 3.0 nM [^3H](+)pentazocine, 37 °C, 180 min): 1.00 ± 0.11 | Selectivity Ki Ratio σ2/σ1 (σ1 receptors [4]; CD-1 mouse whole brain membranes): 36 | Selectivity for binding to σ1 over σ2 receptors (σ1 receptors [4]; from Table II): 35 fold | IC50 (σ1 receptors [4]; read-out: Sigma1 IC50, 3.0 nM [^3H](+)pentazocine, 37 °C, 180 min): 2.07 ± 0.341 µM | Sigma2 nH (σ2 receptors): 1.03 ± 0.05 | IC50 (σ2 receptors; read-out: Sigma2 IC50): 53.4 ± 4.15 µM | Sigma1 nH (σ1 receptors [5]): 0.91 ± 0.11 | IC50 (σ1 receptors [5]; read-out: Sigma1 IC50): 1.36 ± 0.053 µM | Ki (σ1 receptors [5]; read-out: Sigma1 Ki): 1.07 ± 0.042 µM | Concentration in whole mouse brain (Brain level of): 10 µM | Selectivity for binding to the DAT over σ1 receptors (rat striatal DAT): roughly 15 fold | Affinity for the DAT relative to σ1 receptors (DAT): 70 fold | Inhibition of radioligand uptake, average over brain regions (σ1 receptors [6]): 37% | Inhibition of radioligand uptake, hippocampus (σ1 receptors [6]): 27% | Inhibition of radioligand uptake, olfactory tubercles (σ1 receptors [6]): 45%
